In patent US9725465B2, “Biaryl acetamide compounds and methods of use thereof” (Ambit Biosciences Corporation, priority 2013, dated 2017):

Assays:
FLT3-ITD-F691L = FLT3-ITD-F691L (Homo sapiens (Human), UniProt P36888, F691L/INS600HVDFREYEYD); assay: pFLT3 MSD assay, Ba/F3 FLT3-ITD-F691L; format: cell-based; details: Ba/F3 FLT3-ITD-F691L cells, 2 hours, read-out: BaF3-FLT3-ITD-F691L pFlt3 IC50
FLT3-ITD-D835V = FLT3-ITD-D835V (Homo sapiens (Human), UniProt P36888, D835V/INS600HVDFREYEYD); assay: pFLT3 MSD assay, Ba/F3 FLT3-ITD-D835V; format: cell-based; details: Ba/F3 FLT3-ITD-D835V cells, 2 hours, read-out: BaF3-FLT3-ITD-D835V pFlt3 IC50

Row | IC50 (FLT3-ITD-F691L) [µM] | IC50 (FLT3-ITD-D835V) [µM] | Structure (SMILES)
1 | < 0.01 | < 0.01 | CCOc1cc2ncc(-c3ccc(CC(=O)Nc4cc(C5(C(F)(F)F)CC5)on4)c(F)c3)nc2cc1OCC [Example 118, 2-[4-(6,7-diethoxyquinoxalin-2-yl)-2-fluoro-phenyl]-N-[5-[1-(trifluoromethyl)cyclo-propyl]isoxazol-3-yl]acetamide]
2 | < 0.01 | < 0.01 | COc1cc2nc(-c3ccc(CC(=O)Nc4cc(C5(C(F)(F)F)CC5)on4)c(F)c3)cnc2cc1OCCOC(=O)N(C)C [Example 136, 2-[2-[3-fluoro-4-[2-oxo-2-[[5-[1-(trifluoro-methyl)cyclopropyl]isoxazol-3-yl]amino]ethyl]phenyl]-7-methoxy-quinoxalin-6-yl]oxyethyl N,N-dimethylcarbamate]
3 | 0.02 to 0.05 | > 0.05 | COc1cc2nc(CO)c(-c3ccc(CC(=O)Nc4cc(C5(C(F)(F)F)CC5)on4)c(F)c3)nc2cc1OC [Example 137, 2-[2-fluoro-4-[3-(hydroxymethyl)-6,7-dimethoxy-quinoxalin-2-yl]phenyl]-N-[5-[1-(trifluoro-methyl)cyclopropyl]isoxazol-3-yl]acetamide]
4 | 0.02 to 0.05 | > 0.05 | COc1cc2ncc(-c3ccc(CC(=O)Nc4cc(C(C)(C)C(F)(F)F)on4)c(F)c3)c(Cl)c2cc1OC [Example 138, 2-[4-(4-chloro-6,7-dimethoxy-3-quinolyl)-2-fluoro-phenyl]-N-[5-(2,2,2-trifluoro-1,1-dimethyl-ethyl)isoxazol-3-yl]acetamide]
5 | < 0.01 | < 0.01 | COc1cc2ncc(-c3ccc(CC(=O)Nc4cc(C(C)(C)C)nn4C)c(F)c3)nc2cc1OC [Example 139, N-(5-tert-butyl-2-methyl-pyrazol-3-yl)-2-[4-(6,7-dimethoxyquinoxalin-2-yl)-2-fluoro-phenyl]acetamide]
6 | < 0.01 | < 0.01 | COc1cc2ncc(-c3ccc(CC(=O)Nc4cc(C(C)(C)C)nn4-c4ccccc4)c(F)c3)nc2cc1OC [Example 140, N-(5-tert-butyl-2-phenyl-pyrazol-3-yl)-2-[4-(6,7-dimethoxyquinoxalin-2-yl)-2-fluoro-phenyl]acetamide]
7 | 0.02 to 0.05 | 0.02 to 0.05 | COc1cc2ncc(-c3ccc(CC(=O)Nc4cc(C(C)(C)C(F)(F)F)on4)c(F)c3)c(N=[N+]=[N-])c2cc1OC [Example 141, 2-[4-(4-azido-6,7-dimethoxy-3-quinolyl)-2-fluoro-phenyl]-N-[5-(2,2,2-trifluoro-1,1-dimethyl-ethyl)isoxazol-3-yl]acetamide]

More lines, now with the values behind:

Row | Structure (SMILES) | IC50 (FLT3-ITD-F691L) [µM] | IC50 (FLT3-ITD-D835V) [µM]
8 | CC(C)(c1cc(NC(=O)Cc2ccc(-c3cnc4[nH]nc(OCCOC(F)(F)F)c4c3)cc2F)no1)C(F)(F)F [Example 114, 2-[2-fluoro-4-[3-[2-(trifluoromethoxy)ethoxy]-1H-pyrazolo[3,4-b]pyridin-5-yl]phenyl]-N-[5-(2,2,2-trifluoro-1,1-dimethyl-ethyl)isoxazol-3-yl]acetamide] | < 0.01 | < 0.01
9 | COc1cc2ncc(-c3ccc(CC(=O)Nc4cc(C(C)(C)C(F)(F)F)on4)c(F)c3)cc2c(OC)c1OC [Example 115, 2-[2-fluoro-4-(5,6,7-trimethoxy-3-quinolyl)phenyl]-N-[5-(2,2,2-trifluoro-1,1-dimethyl-ethyl)isoxazol-3-yl]acetamide] | < 0.01 | 0.01 to 0.02
10 | COc1cc2ncc(-c3ccc(CC(=O)Nc4cc(C(C)(C)C)on4)cc3)cc2c(OC)c1OC [Example 116, N-(5-tert-butylisoxazol-3-yl)-2-[4-(5,6,7-trimethoxy-3-quinolyl)phenyl]acetamide] | 0.01 to 0.02 | 0.02 to 0.05
11 | CN(C)NC(=O)c1cc2cc(-c3ccc(CC(=O)Nc4cc(C5(C(F)(F)F)CC5)on4)c(F)c3)cnc2[nH]1 [Example 117, 2-[4-[2-(dimethylaminocarbamoyl)-1H-pyrrolo[2,3-b]pyridin-5-yl]-2-fluoro-phenyl]-N-[5-[1-(trifluoro-methyl)cyclopropyl]isoxazol-3-yl]acetamide] | < 0.01 | < 0.01
12 | O=C(Cc1ccc(-c2cnc3cc4c(cc3n2)OCO4)cc1F)Nc1cc(C2(C(F)(F)F)CC2)on1 [Example 119, 2-[4-([1,3]dioxolo[4,5-g]quinoxalin-6-yl)-2-fluoro-phenyl]-N-[5-[1-(trifluoro-methyl)cyclopropyl]isoxazol-3-yl]acetamide] | < 0.01 | 0.01 to 0.02
13 | COCCOc1cc2ncc(-c3ccc(CC(=O)Nc4cc(C(C)(C)C)on4)cc3)nc2cc1OCCOC [Example 120, 2-[4-[6,7-bis(2-methoxyethoxy)quinoxalin-2-yl]phenyl]-N-(5-tert-butylisoxazol-3-yl)acetamide] | < 0.01 | < 0.01
14 | O=C(Cc1ccc(-c2cnc3cc4c(cc3n2)OC[C@@H](CO)O4)cc1F)Nc1cc(C2(C(F)(F)F)CC2)on1 [Example 121, 2-[2-fluoro-4-[(2R)-2-(hydroxymethyl)-2,3-dihydro-[1,4]dioxino[2,3-g]quinoxalin-7-yl]phenyl]-N-[5-[1-(trifluoro-methyl)cyclopropyl]isoxazol-3-yl]acetamide] | < 0.01 | < 0.01
15 | O=C(Cc1ccc(-c2cnc3cc4c(cc3n2)O[C@H](CO)CO4)cc1F)Nc1cc(C2(C(F)(F)F)CC2)on1 [Example 122, 2-[2-fluoro-4-[(3R)-3-(hydroxymethyl)-2,3-dihydro-[1,4]dioxino[2,3-g]quinoxalin-7-yl]phenyl]-N-[5-[1-(trifluoro-methyl)cyclopropyl]isoxazol-3-yl]acetamide] | < 0.01 | < 0.01
16 | COc1cc2nc(N)c(-c3ccc(CC(=O)Nc4cc(C5(C(F)(F)F)CC5)on4)c(F)c3)nc2cc1OC [Example 123, 2-[4-(3-amino-6,7-dimethoxy-quinoxalin-2-yl)-2-fluoro-phenyl]-N-[5-[1-(trifluoro-methyl)cyclopropyl]isoxazol-3-yl]acetamide] | < 0.01 | < 0.01
17 | COc1cc2nc(OC)c(-c3ccc(CC(=O)Nc4cc(C5(C(F)(F)F)CC5)on4)c(F)c3)nc2cc1OC [Example 124, 2-[2-fluoro-4-(3,6,7-trimethoxyquinoxalin-2-yl)phenyl]-N-[5-[1-(trifluoro-methyl)cyclopropyl]isoxazol-3-yl]acetamide] | > 0.05 | > 0.05
18 | CCOC(=O)c1nc2cc(OC)c(OC)cc2nc1-c1ccc(CC(=O)Nc2cc(C3(C(F)(F)F)CC3)on2)c(F)c1 [Example 132, ethyl 3-[3-fluoro-4-[2-oxo-2-[[5-[1-(trifluoro-methyl)cyclopropyl]isoxazol-3-yl]amino]ethyl]phenyl]-6,7-dimethoxy-quinoxaline-2-carboxylate] | > 0.05 | > 0.05
19 | COc1cc2nc(C(=O)O)c(-c3ccc(CC(=O)Nc4cc(C5(C(F)(F)F)CC5)on4)c(F)c3)nc2cc1OC [Example 133, 3-[3-fluoro-4-[2-oxo-2-[[5-[1-(trifluoro-methyl)cyclopropyl]isoxazol-3-yl]amino]ethyl]phenyl]-6,7-dimethoxy-quinoxaline-2-carboxylic acid] | > 0.05 | > 0.05
20 | COc1cc2nc(C(N)=O)c(-c3ccc(CC(=O)Nc4cc(C5(C(F)(F)F)CC5)on4)c(F)c3)nc2cc1OC [Example 135, 3-[3-fluoro-4-[2-oxo-2-[[5-[1-(trifluoro-methyl)cyclopropyl]isoxazol-3-yl]amino]ethyl]phenyl]-6,7-dimethoxy-quinoxaline-2-carboxamide] | > 0.05 | > 0.05
